The numbers were not newly measured in paper PMC12573178, “Substrate-Guided Development of HDAC11-Selective Inhibitors Featuring α‑Amino Amide Zinc-Binding Groups” (ACS Omega, 2025), which cites them from elsewhere.

By UniProt entry, the sequences of proteins in these tests, tags left out.
UniProt Q96DB2, whole entry: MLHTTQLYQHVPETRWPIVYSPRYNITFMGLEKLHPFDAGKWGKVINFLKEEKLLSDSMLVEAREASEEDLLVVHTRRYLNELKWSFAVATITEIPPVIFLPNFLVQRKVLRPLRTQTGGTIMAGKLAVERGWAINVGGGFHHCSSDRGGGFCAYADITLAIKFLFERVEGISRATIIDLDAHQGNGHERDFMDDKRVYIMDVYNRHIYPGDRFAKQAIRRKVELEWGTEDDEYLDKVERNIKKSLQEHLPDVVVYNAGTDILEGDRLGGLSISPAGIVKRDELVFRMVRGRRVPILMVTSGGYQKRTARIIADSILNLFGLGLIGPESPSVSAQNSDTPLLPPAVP

Molecules are shown by their SMILES.

The series deals with HDAC11 (Homo sapiens, UniProt Q96DB2). Conditions: read-out: IC50 as reported for HDAC11; literature values, Figure 1; ref not printed per compound; cited from earlier work.

As to `CCCCCCN(O)C(=O)CCCCC[C@@H]1NC(=O)[C@H]([C@@H](C)CC)NC(=O)[C@H](Cc2ccccc2C(F)(F)F)NC(=O)CCSCc2cccc(n2)CSCCNC1=O`, the IC50 is 7.3 nM.

One may read the IC50 as the concentration at which inhibition is half-maximal.
